# In ChEMBL document CHEMBL3244325, “Diastereoisomeric N-tetrahydrofurfurylnoroxymorphones with opioid agonist--antagonist properties” (J Med Chem, 1977):
# Experiments:
# [1] = species: Cavia porcellus; assay: Agonist activity at opioid receptor in myenteric plexus of guinea pig ileum relative to morphine; assay type: tissue-based
# [2] = species: Cavia porcellus; assay: Antagonist activity at opioid receptor in myenteric plexus of guinea pig ileum relative to nalorphine; assay type: tissue-based
structure (smiles),measurement,setting,value
CC(C)=CCN1CCC2(C)c3cc(O)ccc3CC1C2C.Cl (configuration not stated) [PENTAZOCINE HYDROCHLORIDE],Ratio,[1],0.27
same,Ratio,[2],0.3
